Assay results reported in PubChem BioAssay AID1910 (Broad Institute, 2009).
The entries are a selection whose mix differs from that of the whole data set. Some salts or complexes appear as unconnected parts, following the source record. Calls of active or inactive are those of the source.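 Rule for the calls: active = mean activation of at least 10% of the iron chelator positive control signal, with at least half of replicates also reaching 10%; inconclusive = mean and replicate majority disagree about reaching 10%; inactive = mean and most replicates under 10%.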

experiment: hypoxia response element reporter activation – cell-based, U2OS HRE-luciferase, luminescence, primary screen (AID 1910); conditions: hits give high values, screened at 7.5 µM (by protocol), normalized: DMSO 0%, desferrioxamine 100%

SMILES | activation
O=C(OC1CN2CCC1CC2)c1ccc([N+](=O)[O-])cc1 (stereo unspecified) | inactive: -1.28%
O=C(OCCN1CCN(CCOCc2ccccc2)CC1)C(O)(c1ccccc1)c1ccccc1 | inactive: -0.162%
COc1ccc2c(c1O)-c1c(O)c(OC)cc3c1[C@H](C2)[N+](C)(C)CC3.O=[N+]([O-])c1cc([N+](=O)[O-])c([O-])c([N+](=O)[O-])c1[O-] | inactive: -1.37%
CP(=O)(Nc1ccccc1F)Oc1ccccc1 (stereo unspecified) | inactive: -0.101%
CC(C)c1ccc(OP(C)(=O)Nc2ccc(SC(F)(F)F)cc2)cc1 (stereo unspecified) | inactive: -0.0382%
CCN(CC)CCCOC(=O)C(O)(c1ccccc1)C1CCCCC1 (stereo unspecified) | inactive: 0.325%
CP(=O)(Nc1ccccc1)Oc1ccc(F)cc1 (stereo unspecified) | inactive: -0.258%
CCCCCOc1ccc(NP(C)(=O)Oc2ccc(Cl)cc2Cl)cc1 (stereo unspecified) | inactive: -0.0462%
O=[N+]([O-])c1cc([N+](=O)[O-])c(OC2CCCCC2O)c([N+](=O)[O-])c1 (stereo unspecified) | inactive: -0.447%
CCOC(=O)c1ccc(NP(C)(=O)Oc2ccc(F)cc2)cc1 (stereo unspecified) | inactive: -0.271%
COc1ccc(OP(C)(=O)Nc2ccc(SC(F)(F)F)cc2)cc1 (stereo unspecified) | inactive: 0.613%
O=[N+]([O-])c1ccc(OP2(=O)COCCO2)cc1 (stereo unspecified) | inactive: 0.0133%
O=[N+]([O-])c1cc([N+](=O)[O-])c(NCC2CCS(=O)(=O)C2)c([N+](=O)[O-])c1 (stereo unspecified) | inactive: -0.283%
Cc1cc(-c2cccc3ccccc23)c(C)cn1.O=[N+]([O-])c1cc([N+](=O)[O-])c(O)c([N+](=O)[O-])c1 | inactive: 0.107%
COc1ccc(OP(C)(=O)Nc2cccc(Br)c2)cc1 (stereo unspecified) | inactive: -0.418%
CN(C)CCOC(=O)C(O)(c1ccccc1)C1CCCCC1 (stereo unspecified) | inactive: -0.0833%
COc1ccc(NP(C)(=O)Oc2ccccc2OC)cc1 (stereo unspecified) | inactive: 0.302%
CP(=O)(Nc1ccc2c(c1)OCCO2)Oc1ccccc1 (stereo unspecified) | inactive: -0.196%
Cc1ccccc1NP(C)(=O)Nc1ccccc1C | inactive: -0.572%
CP(=O)(Nc1ccc(SC(F)(F)F)cc1)Oc1ccc(F)cc1 (stereo unspecified) | inactive: -0.61%
CCOP(C)(=S)SCC(=O)NC(C)(CC)C(=O)O (stereo unspecified) | inactive: -0.192%
CC(C)(C)c1ccc(OP(C)(=O)O)cc1 | inactive: -0.06%

SMILES | activation
COc1ccccc1OP(C)(=O)Nc1ccccc1Br (stereo unspecified) | inactive: -1.03%
CP(=O)(Nc1ccc(Cl)cc1)Oc1ccc(F)cc1 (stereo unspecified) | inactive: -0.255%
CN(C)C(=O)c1c([N+](=O)[O-])cc([N+](=O)[O-])cc1[N+](=O)[O-] | inactive: -0.396%
COc1ccc(OP(C)(=O)Nc2ccc(Br)cc2)cc1 (stereo unspecified) | inactive: 1.68%
CCN(CC)CC(O)COC(=O)C(O)(c1ccccc1)C1CCCCC1 (stereo unspecified) | inactive: -0.423%
O=C(OCCCN1CCCC1)C(O)(c1ccccc1)C1CCCCC1 (stereo unspecified) | inactive: 0.464%
COc1ccccc1OP(C)(=O)Nc1c(C)n(C)n(-c2ccccc2)c1=O (stereo unspecified) | inactive: -0.165%
CCc1ccc(OP(C)(=O)Nc2cccnc2)cc1 (stereo unspecified) | inactive: 0.443%
CP(=O)(Oc1ccccc1)N1CCOC1=O (stereo unspecified) | inactive: 0.462%
Nc1ccc2c(ccc3cccnc32)n1.O=[N+]([O-])c1cc([N+](=O)[O-])c(O)c([N+](=O)[O-])c1 | inactive: 0.485%
CCOC(=O)c1ccc(NP(C)(=O)Oc2ccc(Cl)cc2)cc1 (stereo unspecified) | inactive: 0.066%
CP(=O)(OC12CC3CC(CC(C3)C1)C2)OC12CC3CC(CC(C3)C1)C2 | inactive: -0.854%
Cc1nc2ccc3ccccc3c2o1.O=[N+]([O-])c1cc([N+](=O)[O-])c(O)c([N+](=O)[O-])c1 | inactive: 1.03%
CP(=O)(OCCOc1ccccc1)OCCOc1ccccc1 | inactive: -0.265%
CP(=O)(Nc1ccc(Cl)cc1Cl)Oc1ccccc1 (stereo unspecified) | inactive: -0.0659%
Cc1cc(C)cc(OP(C)(=O)Nc2cccc(C(F)(F)F)c2)c1 (stereo unspecified) | inactive: -0.36%
COc1ccccc1OP(C)(=O)Nc1ccc(C)c(C)c1 (stereo unspecified) | inactive: -0.229%
COc1ccc(OP(C)(=O)Nc2ccccc2Br)cc1 (stereo unspecified) | inactive: -0.133%
Cc1c(NP(C)(=O)Oc2ccc(C(C)C)cc2)c(=O)n(-c2ccccc2)n1C (stereo unspecified) | inactive: -0.812%
COc1ccccc1OP(C)(=O)Nc1ccc(C)cc1C (stereo unspecified) | inactive: -0.168%
CP(=O)(Nc1ccccn1)Oc1ccccc1 (stereo unspecified) | inactive: -0.169%
CCc1ccc(OP(C)(=O)O)cc1 | inactive: -0.29%

SMILES | activation
COc1ccccc1OP(C)(=O)Nc1ccc(Br)cc1 (stereo unspecified) | inactive: 0.25%
COc1ccc(OP(C)(=O)Nc2ccccn2)cc1 (stereo unspecified) | inactive: -0.212%
CCN(CC)CCCOC(=O)C(O)(c1ccccc1)c1ccccc1 | inactive: 0.105%
Cc1ccc(NP(C)(=O)Oc2ccccc2)c(C)c1 (stereo unspecified) | inactive: -31.8%
COc1ccccc1OP(C)(=O)Nc1ccc(C)cc1 (stereo unspecified) | inactive: -0.266%
CCOC(=O)c1ccc(NP(C)(=O)Oc2ccccc2)cc1 (stereo unspecified) | inactive: -0.689%
Cc1cc(C)cc(OP(C)(N)=O)c1 (stereo unspecified) | inactive: -0.136%
COc1ccc(OP(C)(=O)Nc2cccc(F)c2)cc1 (stereo unspecified) | inactive: -0.882%
COc1ccccc1OP(C)(=O)Nc1cc(Cl)ccc1C (stereo unspecified) | inactive: -0.509%
O=[N+]([O-])c1cc([N+](=O)[O-])c(Nc2cccnc2)c([N+](=O)[O-])c1 | inactive: 2.02%
O=[N+]([O-])c1ccc2c(c1)C=Nc1ccccc1O2 | inactive: -0.335%
Cc1cccc(C)c1OP(C)(N)=O (stereo unspecified) | inactive: 0.141%
CC(C)(C)c1ccc(OP(C)(=O)Nc2ccc(SC(F)(F)F)cc2)cc1 (stereo unspecified) | inactive: 0.0901%
CP(=S)(Nn1cnnc1)Oc1ccccc1 (stereo unspecified) | inactive: 0.0698%
CP(=O)(Nc1ccccc1Br)Oc1ccccc1 (stereo unspecified) | inactive: -0.895%
COc1ccccc1OP(C)(=O)Nc1ccccc1 (stereo unspecified) | inactive: -0.141%
CCOC(=O)c1ccc(NP(C)(=O)Oc2ccc(OC)cc2)cc1 (stereo unspecified) | inactive: -0.532%
O=[N+]([O-])c1cc([N+](=O)[O-])c(O)c([N+](=O)[O-])c1.c1ccc(Oc2ccncc2)cc1 | inactive: -1.12%
CCOP(C)(=S)SCC(=O)NC(C)C(=O)O (stereo unspecified) | inactive: 0.0602%
CP(=O)(Nc1ccccn1)Oc1ccc(Cl)cc1 (stereo unspecified) | inactive: 0.259%
CP(=O)(Oc1ccccc1)OC(c1ccccc1)C(F)(F)F (stereo unspecified) | inactive: -0.866%
Cc1cccc(C)c1OP(C)(=O)Nc1ccc(SC(F)(F)F)cc1 (stereo unspecified) | inactive: -0.403%

SMILES | activation
CP(=O)(Nc1ccc(SC(F)(F)F)cc1)Oc1ccc(Cl)cc1 (stereo unspecified) | inactive: 0.4%
Cc1cc(C)cc(OP(C)(=O)Nc2ccc(SC(F)(F)F)cc2)c1 (stereo unspecified) | inactive: -0.445%
CCc1ccc(OP(C)(=O)N2CCN(c3ccc([N+](=O)[O-])cc3)CC2)cc1 (stereo unspecified) | inactive: 0.758%
CP(=O)(NC(=O)Nc1ccccc1)Oc1ccccc1 (stereo unspecified) | inactive: 0.807%
O=[N+]([O-])c1cc([N+](=O)[O-])c(-c2cnn(-c3ccccc3)c2)c([N+](=O)[O-])c1 | inactive: -0.593%
O=[N+]([O-])c1cc([N+](=O)[O-])c(-n2nnc3ccccc32)c([N+](=O)[O-])c1 | inactive: -0.262%
COc1ccccc1OP(C)(=O)Nc1c(C)cccc1C (stereo unspecified) | inactive: -0.305%
CN1CCCCC1COC(=O)C1(O)c2ccccc2CCc2ccccc21 (stereo unspecified) | inactive: 0.437%
CP(=O)(Nc1ccc(SC(F)(F)F)cc1)Oc1ccccc1 (stereo unspecified) | inactive: -0.192%
CCCOc1ccc(NP(C)(=O)Oc2ccc(Cl)cc2)cc1 (stereo unspecified) | inactive: -0.528%
CCOC(=O)C(CC)C1=NC(C)(C)Cc2ccccc21.O=[N+]([O-])c1cc([N+](=O)[O-])c(O)c([N+](=O)[O-])c1 (stereo unspecified) | inactive: -0.353%
O=[N+]([O-])c1cc([N+](=O)[O-])c(Nc2nnnn2CCO)c([N+](=O)[O-])c1 | inactive: -1.07%
CC1=NCCc2c1[nH]c1ccccc21.O=[N+]([O-])c1cc([N+](=O)[O-])c(O)c([N+](=O)[O-])c1 | inactive: -0.222%
O=C(O)c1cccc(Nc2c([N+](=O)[O-])cc([N+](=O)[O-])cc2[N+](=O)[O-])c1 | inactive: -0.35%
Cc1ccc(C)c(NP(C)(=O)Oc2ccccc2)c1 (stereo unspecified) | inactive: -1.87%
CP(=O)(Nc1cccc(Br)c1)Oc1ccccc1 (stereo unspecified) | inactive: -1.26%
Cc1cc(C)cc(OP(C)(=O)Nc2ccccn2)c1 (stereo unspecified) | inactive: 0.33%
COc1ccccc1OP(C)(=O)Nc1cccc(Br)c1 (stereo unspecified) | inactive: 0.33%
CCOC(=O)c1ccc(NP(C)(=O)Oc2cc(C)cc(C)c2)cc1 (stereo unspecified) | inactive: 1.18%
Cc1cc(C)cc(OP(C)(=O)Nc2ccc(C)cc2C)c1 (stereo unspecified) | inactive: -0.271%
